Source: PubChem BioAssay AID463254 (National Center for Advancing Translational Sciences (NCATS), 2010)
Values joined by “and” are separate entries in the source; they are usually repeats but may differ in a detail not shown here. Equal values may be shown once. This is a selection; strong and weak results do not stand in their true shares. Active and inactive are the calls of the source. Calls come from the whole dose curve; as a rule, active = well fitted inhibition curve with a large enough effect; inconclusive = small, poorly fitted or top-dose-only effect, or effect the other way; inactive = flat fitted curve, though single readings scatter.

Protein sequences, listed by entry. Tags and fused reporters are not part of them. Lines headed by an entry give the natural chain unless they say otherwise; changes in a name come on top.
UniProt O75604: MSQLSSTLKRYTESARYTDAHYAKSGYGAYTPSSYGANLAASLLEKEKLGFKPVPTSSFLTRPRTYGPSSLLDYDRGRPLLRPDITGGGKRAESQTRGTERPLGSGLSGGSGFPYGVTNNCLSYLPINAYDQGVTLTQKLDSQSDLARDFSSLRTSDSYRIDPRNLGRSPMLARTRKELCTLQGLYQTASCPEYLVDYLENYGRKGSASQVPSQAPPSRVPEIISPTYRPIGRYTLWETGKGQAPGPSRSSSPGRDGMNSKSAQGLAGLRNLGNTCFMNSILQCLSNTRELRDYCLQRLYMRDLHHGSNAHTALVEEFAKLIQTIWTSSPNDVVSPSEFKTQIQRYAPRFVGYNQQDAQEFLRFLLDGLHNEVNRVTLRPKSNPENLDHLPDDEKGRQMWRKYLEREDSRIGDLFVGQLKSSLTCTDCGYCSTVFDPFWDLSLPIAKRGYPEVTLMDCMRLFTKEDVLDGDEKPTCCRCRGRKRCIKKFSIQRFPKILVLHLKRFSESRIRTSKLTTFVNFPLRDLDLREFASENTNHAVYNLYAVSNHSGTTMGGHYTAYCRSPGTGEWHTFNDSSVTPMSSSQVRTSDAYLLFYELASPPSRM

molecular target: Ubiquitin carboxyl-terminal hydrolase 2 (Homo sapiens) (UniProt O75604); assay: qHTS Assay for Inhibitors of Ubiquitin-specific Protease USP2a Using CHOP2 as the Reporter; details: USP2 core, Ub-CHOP2 coupled fluorogenic reporter, 485/531; at 38.3 µM (top of the series)
From the text: NIH Molecular Libraries Screening Centers Network [MLSCN] NIH Chemical Genomics Center [NCGC] MLSCN Grant: XO1-MH079852-01 PI Name: Nicholson, Ben. Progenra Inc, Malvern, PA NCGC Assay Overview: Homeostasis of cellular proteins is maintained through a combination of synthesis and degradation. The pathway that accounts for the majority of protein degradation is the ubiquitin-proteasomal pathway. Ubiquitin (Ub) is highly conserved in all cells and the generation of a multi-Ub chain typically targets proteins for degradation by the proteasome. However, ubiquitination is highly reversible and dynamic. Deubiquitination, the reverse process, is catalyzed through the action of enzymes referred to as isopeptidases or deubiquitinating enzymes (DUBs). This group of enzymes is collectively responsible for maintaining adequate pools of free ubiquitin and regulating the ubiquitination status of cellular proteins. The class of DUBs referred to as the ubiquitin-specific proteases (USP) family functions endoproteolytically to cleave Ub chains from a wide range of protein substrates. USP2a deubiquitinates fatty acid synthase (FASN) which has recently been identified as an emerging oncology target. To identify inhibitors of USP2a a cell-free assay was employed. […] The reporter enzyme chosen is an enterokinase called CHOP2, which is activated when the Ub is cleaved by USP2. The free and now activated reporter can subsequently act on its reporter substrate. Thus, this coupled assay gives a fluorescent read-out at excitation/emission wavelengths of 485/531. The assay was developed by Progenra, Inc. and has been licensed for sale by LifeSensors, Inc. as Ub-CHOP2-Reporter-Kit (#PR1101).
NCGC Assay Protocol Summary: The assay buffer, prepared fresh at the day of the assay, contains 20mM Tris-HCl pH 8.0, 2mM CaCl2, 2mM beta-Mercaptoethanol, 0.05% CHAPS. 3ul of 20nM (10nM final) USP2 core, which is stored on ice, is dispensed into a medium-binding black solid Kalypsys 1,536 well plate using the Kalypsys dispenser. The assay plate is then pinned with 23nL compound with the Kalypsys pintool in columns 5-48. The controls are pinned as follows: column 1 two-fold dilutions of 2M NEM in duplicate; column 2 2M NEM (final concentration 38.2mM); column 3&4 DMSO. The assay plate is incubated at RT for 30min. Subsequently, 1.5uL of 100nM (25nM final) Ub-CHOP2 and 1.5uL of 100nM (25nM final) Reporter Substrate (both stored on ice and protected from light) were dispensed into the plate using the Kalypsys dispenser. Plates were read after 60min RT incubation on a ViewLux (Perkin Elmer) plate reader using the following wavelengths Ex 485nm /Em 531nm. Data were normalized to the to AC100 inhibition (NEM). Concentration-response curves were fitted to the normalized data and the concentration-response curves were then classified based on curve quality (r2), response magnitude and degree of measured activity. The time zero reading was used to flag fluorescence artifacts. Keywords: ubiquitination, deubiquitination, proteases, profluorescent, MLSMR, MLPCN, NIH Roadmap, qHTS, NCGC

SMILES | activity change, negative = inhibition
ClCCSc1nnc(-c2cccnc2)o1 | inactive: 6.2%
Cc1ccc2nc3c(c(C)c2c1)CC(C(Cl)Cl)S3 (stereo unspecified) | inactive: 3%
Cc1ccc(OP(=O)(Nc2ccc([N+](=O)[O-])cn2)Oc2ccc(C)cc2)cc1 | inactive: 0.934%
O=[As](O)(c1ccc(O)cc1)c1ccccc1O | inactive: 1.66%
C[As](=O)(O)c1cccc(C(=O)O)c1 | inactive: 3.6%
COc1cc(C(=O)NCC2(N3CCOCC3)CCCCC2)ccc1OCC(C)C | inactive: -8.78%
CCN(N=Nc1nonc1N)c1nonc1N | inactive: 2.59%
Nc1cccc2ccc([As](=O)(O)O)cc12 | inactive: 2.82%
O=[N+]([O-])c1cc([N+](=O)[O-])c(CCN2CCOCC2)c([N+](=O)[O-])c1 | inactive: 3%
Cc1cc(SC(NC(=O)c2ccc(F)cc2)C(Cl)(Cl)Cl)ncn1 (stereo unspecified) | inactive: -0.66%
CCOP(=O)(Nc1ccccc1)OCC | inactive: 0.18% and inactive: 0.738%
Cc1ccc(NP(=O)(Oc2ccccc2F)Oc2ccccc2F)nc1 | inactive: 9.68%
CC(=O)Nc1ccc([As](=O)(O)O)cc1 | inactive: 5.15%
O=C(O)c1ccccc1[As](=O)(O)O | inactive: 1.78%
O=P(Nc1nc2ccc(Cl)cc2s1)(c1ccccc1)c1ccccc1 | inactive: -0.713%
Nc1cc(N)c2nonc2c1[N+](=O)[O-] | inactive: -0.511%
CC(C)CC(=O)NC(Sc1ccc(Cl)cc1)C(Cl)(Cl)Cl (stereo unspecified) | inactive: 0.513%
Oc1ccccc1CNc1ccccn1 | inactive: 4.22%
O=C(NC(Sc1ccncn1)C(Cl)(Cl)Cl)c1ccccc1 (stereo unspecified) | inactive: -1.59%
Cc1c2non([O-])c-2c(C)[n+](=O)[n+]1[O-] | inactive: -3.65%
COc1ccccc1OP(=O)(Nc1ccc(C)cn1)Oc1ccccc1OC | inactive: -0.347%

SMILES | activity change, negative = inhibition
Cc1ccc(OP(=O)(Nc2nccs2)Oc2ccc(C)cc2)cc1 | inactive: -0.168%
CN1CCCC(OC(=O)C(c2ccccc2)c2ccccc2)C1 (stereo unspecified) | inactive: -0.165%
Clc1ccc(Cl)c(NC2=NCC(CBr)S2)c1 (stereo unspecified) | inactive: 0.0188%
NC(=O)c1cc([N+](=O)[O-])cc([N+](=O)[O-])c1N | inactive: -0.256%
CN(C(=O)Cc1ccc(Cl)c(Cl)c1)[C@H]1CCCC[C@H]1N1CCCC1 | inactive: 0.969%
Cc1ccc(N/C(=N/P(=O)(N2CCOCC2)N2CCOCC2)N2CCOCC2)cc1 | inactive: 3.26%
CC(C)=N/N=C(\N)N[N+](=O)[O-] | inactive: 3.52%
CN(C)C(=O)OCCc1n(C)cc[n+]1C | inactive: 3.94%
CC1CCN(C(=O)Oc2c(Cl)cc(Cl)c3cccnc23)CC1 | inactive: 2.37%
Nc1ccc([As](=O)(O)c2ccc(N)cc2)cc1 | inactive: 0.783%
C[N+]1=C2C=CC=CC=C2SC12C([N+](=O)[O-])=CC([N+](=O)[O-])=C[C-]2[N+](=O)[O-] (stereo unspecified) | inactive: 3%
CCN(/C(=N/P(=O)(N1CCOCC1)N1CCOCC1)N1CCOCC1)c1ccc(OC)cc1 | inactive: 1.56%
CC(=O)N1C2C3N(C(C)=O)C1C1N(C(C)=O)C(C(N1C(C)=O)N3C(C)=O)N2C(C)=O | inactive: 0.895%
O=[N+]([O-])c1cccc2n[nH]nc12 | inactive: 5.24%
Cc1ccc(NP(=O)(Oc2ccccc2)Oc2ccccc2)nc1 | inactive: 0.976%
O=[N+]([O-])c1cc([N+](=O)[O-])c(CCNc2ccccc2)c([N+](=O)[O-])c1 | inactive: 3.25%
CCc1nc2c(n1)c1c(non1O)c1c2no[n+]1[O-] | inactive: 3.48%
COc1ccc(C2=NCC(CBr)S2)cc1 (stereo unspecified) | inactive: -2.97%
O=[N+]([O-])c1cccc(NC2=NCC(CBr)S2)c1 (stereo unspecified) | inactive: -1.63%
O=C(O)CNc1ccc([As](=O)(O)O)cc1 | inactive: 0.33%
CC(C)(C)C(=O)NC(Sc1ccncn1)C(Cl)(Cl)Cl (stereo unspecified) | inactive: 1.34%

SMILES | activity change, negative = inhibition
O=[N+]([O-])c1ncn(CCn2ncnc2[N+](=O)[O-])n1 | inactive: 5.19%
O=C(Nc1cc([As](=O)(O)O)ccc1O)c1ccccc1 | inactive: 0.421%
C(Cc1nn[nH]n1)Cc1nn[nH]n1 | inactive: 0.315%
Nc1ccc([As](=O)(O)c2ccc([N+](=O)[O-])cc2)cc1 | inactive: 0.244%
O=C(OC1CN2CCC1CC2)c1cccc(Cl)c1 (stereo unspecified) | inactive: 0.623%
CC(=O)NC(SC(=S)N(C)C)C(Cl)(Cl)Cl (stereo unspecified) | inactive: 0.735%
O=[N+]([O-])c1ncn(CCn2cnc([N+](=O)[O-])n2)n1 | inactive: 1.53%
O=[N+]([O-])c1ccc(O)c(/C=N/Nc2ccc([N+](=O)[O-])cc2[N+](=O)[O-])c1 | inactive: -0.895%
O=[As](O)(c1ccccc1)c1ccc(O)cc1 | inactive: 1.25%
O=P(Nc1nc2ccccc2s1)(c1ccccc1)c1ccccc1 | inactive: 2.95%
C[C@H]1OP(=O)(Oc2ccccc2)[C@H](O)[C@H](O)[C@H]1N=[N+]=[N-] (stereo partly specified) | inactive: 2.59%
CN(C)C1(CNC(=O)c2ccc(Cl)c(S(N)(=O)=O)c2)CCCCC1 | inactive: 2.97%
O=P(Nc1ccccn1)(c1ccc(Br)cc1)c1ccc(Br)cc1 | inactive: -5.34%
c1nnnn1CCn1cnnn1 | inactive: -1.63%
O=P(Nc1nccs1)(c1ccccc1)c1ccccc1 | inactive: -4.44%
CC(C)C(=O)NC(Sc1ccccc1)C(Cl)(Cl)Cl (stereo unspecified) | inactive: 2.76%
CC(=O)Nc1ccc([As](=O)(O)O)c(O)c1 | inactive: -1.03%
CC(=O)Nc1ccc(Oc2c([N+](=O)[O-])cc([N+](=O)[O-])cc2[N+](=O)[O-])cc1 | inactive: -0.949%
CC(=O)c1ccc(N2CC2c2ccncc2)cc1 (stereo unspecified) | inactive: 3.61%
Cc1ccccc1CN(C)C(=O)COC(=O)C(O)(c1ccccc1)c1ccccc1 | inactive: -6.16%
C[C@H]1OP(=O)(Oc2ccccc2)C[C@@H]2O[C@@H]21 (stereo partly specified) | inactive: 0.0696%

SMILES | activity change, negative = inhibition
C[C@@H]1C=CCP(=O)(Oc2ccccc2)O1 (stereo partly specified) | inactive: -0.334%
CC(C)(C)C(=O)NC(Sc1ccccc1)C(Cl)(Cl)Cl (stereo unspecified) | inactive: 2.05%
O=P1(Nc2nc3ccc(Cl)cc3s2)COc2ccccc2O1 (stereo unspecified) | inactive: 0.174%
CCOc1ccc(C2=NCC(CBr)S2)cc1 (stereo unspecified) | inactive: 0.644%
CC(NC(=O)COC(=O)C(O)(c1ccccc1)c1ccccc1)c1ccccc1 (stereo unspecified) | inactive: 1.57%
Cc1ccccc1OP(=O)(Nc1ccccn1)Oc1ccccc1C | inactive: -1.43%
O=c1c2cc([N+](=O)[O-])ccc2[nH]c2c([N+](=O)[O-])cc([N+](=O)[O-])cc12 | inactive: -0.629%
CN(C)C(=O)Oc1noc2ccccc12 | inactive: 0.433%
COC(=O)c1cc2c(s1)N=C(c1ccccc1)N(C)P2(=O)N1CCOCC1 (stereo unspecified) | inactive: -0.497%
CC(=O)NC(SC(=S)N(CC(C)C)CC(C)C)C(Cl)(Cl)Cl (stereo unspecified) | inactive: 9.85%
Cc1ccc(OP(=O)(Nc2ccccn2)Oc2ccc(C)cc2)cc1 | inactive: -3.43%
O=C(OC1CN2CCC1CC2)c1ccccc1 (stereo unspecified) | inactive: -7.54%
CCC(=O)N1C2C3N(C(=O)CC)C1C1N(C(=O)CC)C(C(N1C(=O)CC)N3C(=O)CC)N2C(=O)CC | inactive: -0.254%
O=C(NC1CCS(=O)(=O)C1)NP(=S)(Oc1ccccc1)Oc1ccccc1 (stereo unspecified) | inactive: 0.136%
CCNC(=S)/N=C(\N)N[N+](=O)[O-] | inactive: 2.32%
c1ccc(-c2nn[nH]n2)c(-c2nn[nH]n2)c1 | inactive: -1.48%
Cc1ccc(NP(=O)(Oc2cccc(C)c2)Oc2cccc(C)c2)nc1 | inactive: 2.69%
CCOC(=O)NC(Sc1ccccc1)C(Cl)(Cl)Cl (stereo unspecified) | inactive: 3.78%
